Antibody variant affinities, Ab-14 heavy chain, assay 1

Reference: Engelhart et al. 2022, doi:10.1038/s41597-022-01779-4. File: FLAb, binding data.

Target peptide (SARS-CoV-2 spike, HR2 region): PDVDLGDISGINAS

Ab-14 is the parent antibody, in scFv form: VH, then a 15-residue (Gly4Ser)3 linker, then VL. The light chain is unchanged in all variants.
VH: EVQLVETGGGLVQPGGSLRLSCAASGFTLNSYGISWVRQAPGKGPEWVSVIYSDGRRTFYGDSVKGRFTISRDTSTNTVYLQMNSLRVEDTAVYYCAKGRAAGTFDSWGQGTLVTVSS
VL: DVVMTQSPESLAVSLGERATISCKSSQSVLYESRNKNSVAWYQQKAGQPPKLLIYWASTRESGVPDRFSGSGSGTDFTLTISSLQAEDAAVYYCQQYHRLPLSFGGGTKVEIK

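The parent was found by panning a naive human phage display library on the peptide. Library AAYL49 holds single substitutions and randomly drawn double and triple substitutions in the CDRs. In AlphaSeq, yeast of one mating type display the scFv and yeast of the other type display the target. Pairs that bind mate more often; barcode pairs of the diploids are counted by sequencing. The ratio of observed to expected reads was calibrated, replicate by replicate, on BCL2-family standards whose Kd was known from biolayer interferometry. There are three technical replicates.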

Each variant is given by its three heavy chain CDRs, as the data file delimits them; those of the parent are GFTLNSYGIS, VIYSDGRRTFYGDSVK, GRAAGTFDS.
Every variant below is changed at R56 of the VH (sequential numbering).
Affinities are written as log10 Kd with Kd in nM; a lower number is a better binder.
Averages over replicates are reported, and they cover detected replicates only.
"nd" means that the variant was in the library but no mating with the target was seen in that replicate; the authors take this as a sign of poor binding, and no number exists.
The list is sorted by this average, lowest first, undetected variants last.
Parent in this assay: reference entry 0.65, copy in this library 4.11 (one replicate of three).

With GFTLNSYGIS / VIYSDGLRTFYGDSVK / GRVAGTFDS the result was -0.02, 0.42, 0.08 (mean 0.16). With GFTLNMYGIS / VIYSDGERTSYGDSVK / GRAAGTFDS the result was 0.39, 0.61, 0.52 (mean 0.50). With GFTLNSYGIS / VIYSDGIRTFYGDSVK / GRAMGTFDT the result was 0.30, 0.89, 0.72 (mean 0.64). With GFTLNSYGIS / VIYSDGKRTFYGDSVK / GRAAGTFDS the result was 0.56, 0.79, 0.70 (mean 0.68). The variant GFTLNSYGIS / VIYSDGTRTFYGDSVK / GRAANTFDS showed 1.01, 1.11, 1.13 (mean 1.08).

For GFTLASYGIS / VIYSDGIREFYGDSVK / GRAAGTFDS, the assay gave 1.19, 1.24, 1.29 (mean 1.24). The variant GFTLNSYGIS / VMYSDGTRTFYVDSVK / GRAAGTFDS gave 1.58, 1.43, 1.70 (mean 1.57). The variant GFTVNSYGIS / VIYSDGDRTFYGASVK / GRAAGTFDS gave 2.03, 2.13, 2.30 (mean 2.15). The variant GFTLNSYGIS / VIYSDGVRTFAGDSVK / GRAAGTFDS gave 2.48, 2.31, 2.30 (mean 2.36). The variant GFTLNSCGIS / VIYSDGVRTFYPDSVK / GRAAGTFDS showed 2.78, 2.56, nd (mean 2.67).

The variant GFTLNMYGIS / VIYSDGTNTFYGDSVK / GRAAGTFDS showed 2.38, 2.20, 3.46 (mean 2.68). The variant GFTLRSYGIS / VIYSDGNRTFYGDSVK / GRAAGTFDN gave 2.34, 2.73, 3.03 (mean 2.70). For RFTLNSYGIS / VIYSDGMRTFYGDSVK / GRATGTFDS, the assay gave nd, nd, 3.01. The variant GFTLNCYGIS / VIYSDGLRVFYGDSVK / GRAAGTFDS showed 3.04, nd, 3.10 (mean 3.07). For GFTLNSYGIR / VIYSDGIRTFYGDSVK / GRAALTFDS, the assay gave nd, 3.34, nd.

The variant GFTLNSYGIS / VIYSDGIRTFMGDSVK / GRAAGTFDG gave 3.51, 3.09, 3.55 (mean 3.38). The variant GFTFNSYGIS / VIYSDGIRTFYGDSVK / CRAAGTFDS showed 3.91, 3.16, 3.16 (mean 3.41). The variant GFTLCSYGIS / VIYSDGDRTFYGDLVK / GRAAGTFDS showed 3.72, 3.29, nd (mean 3.51). The variant GFTLNSDGIS / VIYSDGFRTFYGDSVK / SRAAGTFDS gave nd, nd, 3.67. For GFTLNSYGIS / PIYSDGYRTFYYDSVK / GRAAGTFDS, the assay gave nd, 3.71, nd.

The variant GFTKNSYGIS / VIGSDGERTFYGDSVK / GRAAGTFDS gave nd, 3.79, nd. The variant GFTLYSYGIS / VIYSDGYRTLYGDSVK / GRAAGTFDS showed 3.91, nd, nd. With GFTLNSYGIS / VIYSDGMRYFYPDSVK / GRAAGTFDS the result was nd, 3.92, 4.28 (mean 4.10). The variant GFTLNSYGIS / VIYSDGARTFYGDSVK / GRAEGTFDS showed 4.60, nd, nd. The variant CFTLNSYGIS / VIYSDGCRTKYGDSVK / GRAAGTFDS showed nd, nd, 4.71.

The variant GFTLNSYGIS / VIYCDGPRNFYGDSVK / GRAAGTFDS gave 5.28, nd, nd. With GFTLNSPGIS / VIYSDGERTFQGDSVK / GRAAGTFDS the result was 5.33, nd, nd. The variant GFTLNSYGIS / VIEDDGYRTFYGDSVK / GRAAGTFDS showed 6.30, nd, nd. The variant GFTLNSYGIS / VIYSDGESTFYGDSVK / GRAARTFDS showed nd, nd, nd. For GFTTNSYGIS / VIYSDGCRNFYGDSVK / GRAAGTFDS, the assay gave nd, nd, nd.

The variant GFTLNSYGIS / VIASDGLRPFYGDSVK / GRAAGTFDS showed nd, nd, nd. With GFTLNRYGIS / VIYSDGYRTFYGDSVK / GRAAGTFDS the result was nd, nd, nd. With GFTSNSRGIS / VIYSDGIRTFYGDSVK / GRAAGTFDS the result was nd, nd, nd. The variant GQTLNSYGIS / VIYSCGNRTFYGDSVK / GRAAGTFDS showed nd, nd, nd. The variant GFTLNSYDIS / VIYSDGQRTGYGDSVK / GRAAGTFDS gave nd, nd, nd.

The variant GATLNSYGIS / VIYSDGPITFYGDSVK / GRAAGTFDS showed nd, nd, nd. For GYTLNSYGIS / VILSDGWRTFYGDSVK / GRAAGTFDS, the assay gave nd, nd, nd. The variant GFTLNSYGIS / VIYSDGVRTFDGDSVK / GRAAGTFCS showed nd, nd, nd. The variant GFTLNSYGIS / VIYTDGERTFYGDSVK / GRAAGTIDS showed nd, nd, nd. The variant GFLLNSYGIS / VIYSDGVRTFYGDSVK / GRAAGTFCS showed nd, nd, nd.

For GFTLNSYGIS / VIYSIGFRTFYGDSVK / GRAAGTFDS, the assay gave nd, nd, nd. With GFTLNSYGIS / VIYSDGSRTFYGDSVK / GQAASTFDS the result was nd, nd, nd. The variant GFTLNSYMIS / VIYSDGMRTFYGDSVK / QRAAGTFDS showed nd, nd, nd. For GFTINSYSIS / VIYSDGQRTFYGDSVK / GRAAGTFDS, the assay gave nd, nd, nd.

Top 7 of the variants detected in all replicates, tightest first:

Variant GFTLNSYGIS / VIYSDGLRTFYGDSVK / GRVAGTFDS showed -0.02, 0.42, 0.08 (mean 0.16).
Variant GFTLNMYGIS / VIYSDGERTSYGDSVK / GRAAGTFDS showed 0.39, 0.61, 0.52 (mean 0.50).
Variant GFTLNSYGIS / VIYSDGIRTFYGDSVK / GRAMGTFDT showed 0.30, 0.89, 0.72 (mean 0.64).
Variant GFTLNSYGIS / VIYSDGKRTFYGDSVK / GRAAGTFDS showed 0.56, 0.79, 0.70 (mean 0.68).
Variant GFTLNSYGIS / VIYSDGTRTFYGDSVK / GRAANTFDS showed 1.01, 1.11, 1.13 (mean 1.08).
Variant GFTLASYGIS / VIYSDGIREFYGDSVK / GRAAGTFDS showed 1.19, 1.24, 1.29 (mean 1.24).
Variant GFTLNSYGIS / VMYSDGTRTFYVDSVK / GRAAGTFDS showed 1.58, 1.43, 1.70 (mean 1.57).

As a blank, each scFv also met three strains without target: over library AAYL49, 15% of these pairings were detected, typically at 4.06 and seldom below 2.83.